Results as given in patent publication US10449162B2, “Delivery of drug nanoparticles and methods of use thereof” (DFB Soria, LLC, priority 2015, dated 2019).

Assay: Solubility of the active in Franz cell receptor fluid
Format: physicochemical
Conditions: 96 wt % PBS pH 7.4 and 4 wt % hydroxyl propyl beta cyclodextrin

Substance: paclitaxel
- Solubility of the active in the receptor fluid: ~0.4 µg/mL
